Test system: primary HSCs

## Cc1sc2c(c1C)C(c1ccc(Cl)cc1)=N[C@@H](CC(=O)OC(C)(C)C)c1nnc(C)n1-2 [JQ1, (S)-tert-butyl 2-(4-(4-chlorophenyl)-2,3,9-trimethyl-6H-thieno[3,2-f][1,2,4]triazolo[4,3-a][1,4]diazepin-6-yl)acetate]
  Kif26b log2(fold_change): −2.0125
  Kifc1 log2(fold_change): 0.8611
  Klhl13 log2(fold_change): 0.9742
  Klhl26 log2(fold_change): −0.3596
  LOC100616095 log2(fold_change): −0.8973
  Lama1 log2(fold_change): 0.9865
  Lama2 log2(fold_change): −0.5798
  Lamb2 log2(fold_change): 0.4221
  Lars2 log2(fold_change): −0.6395
  Lclat1 log2(fold_change): −0.4544
  Lepre1 log2(fold_change): −0.3157
  Leprel1 log2(fold_change): −0.5121
  Leprel2 log2(fold_change): −0.3874
  Lgals1 log2(fold_change): −0.4625
  Lhfp log2(fold_change): 0.4217
  Lims2 log2(fold_change): −1.8928
  Lmod1 log2(fold_change): −2.7688
  Lox13 log2(fold_change): −1.6979
  Lox14 log2(fold_change): −2.7091
  Lox log2(fold_change): −2.7213
  Loxl1 log2(fold_change): −0.363
  Loxl2 log2(fold_change): −0.3528
  Lphn1 log2(fold_change): 0.6029
  Lpp log2(fold_change): −0.8444
  Lrig3 log2(fold_change): −0.6347
  Lrrn2 log2(fold_change): −1.6153
  Lrrn4 log2(fold_change): −0.7786
  Ltbp1 log2(fold_change): −2.6745
  Ltbp2 log2(fold_change): −4.9117
  Lum log2(fold_change): 1.427
  Mad2l1 log2(fold_change): 0.8718
  Maged2 log2(fold_change): −0.5844
  Mageh1 log2(fold_change): −0.3127
  Man2b2 log2(fold_change): −0.5072
  Mapk8ip1 log2(fold_change): 1.101
  Mboat7 log2(fold_change): −0.7968
  Meg3 log2(fold_change): −0.8796
  Meis1 log2(fold_change): 0.8249
  Melk log2(fold_change): 0.6233
  Mfap4 log2(fold_change): −6.3503
  Mfap5 log2(fold_change): −6.5064
  Mfge8 log2(fold_change): 0.4139
  Mgp log2(fold_change): −2.6459
  Mki67 log2(fold_change): 0.7334
  Mlec log2(fold_change): −0.5749
  Mmgt2 log2(fold_change): −0.7004
  Mmp2 log2(fold_change): −0.6604
  Mmp11 log2(fold_change): 0.6115
  Mmp17 log2(fold_change): 1.56
  Mmp23 log2(fold_change): −2.9097
  Mpp2 log2(fold_change): −0.8039
  Mpzl1 log2(fold_change): −0.4362
  Mrap log2(fold_change): −5.3852
  Mras log2(fold_change): 0.4702
  Mrc2 log2(fold_change): 0.5435
  Mrgprf log2(fold_change): −2.7091
  Mrvi1 log2(fold_change): −2.3226
  Msx1 log2(fold_change): 0.5226
  Mxd4 log2(fold_change): 0.8047
  Myh10 log2(fold_change): −0.2233
  Myh11 log2(fold_change): −2.346
  Myl6 log2(fold_change): −0.275
  Myl9 log2(fold_change): −2.601
  Mylk log2(fold_change): −0.4574
  Myo1d log2(fold_change): −0.4602
  Myof log2(fold_change): −0.2331
  Naalad2 log2(fold_change): −3.1434
  Nav2 log2(fold_change): −0.8808
  Ncam1 log2(fold_change): −2.3364
  Ncapd2 log2(fold_change): 0.8923
  Ncapg2 log2(fold_change): 0.929
  Ncaph log2(fold_change): 1.061
  Ndc80 log2(fold_change): 0.5775
  Ndn log2(fold_change): −0.8354
  Ndrg2 log2(fold_change): −1.7138
  Nek2 log2(fold_change): 0.8335
  Nexn log2(fold_change): −2.2263
  Nfatc4 log2(fold_change): −3.0565
  Nid2 log2(fold_change): −0.2731
  Nkd1 log2(fold_change): 0.7012
  Nnmt log2(fold_change): −0.8991
  Npr2 log2(fold_change): −0.6889
  Npr3 log2(fold_change): −2.9719
  Nradd log2(fold_change): −0.7888
  Nts log2(fold_change): −1.6204
  Nuak1 log2(fold_change): −0.6648
  Nudt18 log2(fold_change): −0.7117
  Nuf2 log2(fold_change): 0.5595
  Numbl log2(fold_change): −0.3544
  Nusap1 log2(fold_change): 0.9007
  Oat log2(fold_change): 0.5311
  Obsl1 log2(fold_change): −1.7738
  Ogdhl log2(fold_change): −0.8041
  Olfm2 log2(fold_change): −3.6554
  Osbpl5 log2(fold_change): 0.4402
  Osr1 log2(fold_change): 0.6503
  P2ry14 log2(fold_change): −4.7389
  P4ha1 log2(fold_change): −0.4941
  P4ha3 log2(fold_change): −3.0265
  Palld log2(fold_change): −1.5296
  Paqr8 log2(fold_change): −0.5827
  Pbx1 log2(fold_change): 0.6233
  Pcolce log2(fold_change): −0.8139
  Pcsk5 log2(fold_change): −1.6254
  Pcsk6 log2(fold_change): 1.1413
  Pcyox1 log2(fold_change): 1.187
  Pde1a log2(fold_change): −1.6717
  Pde4dip log2(fold_change): −0.722
  Pdgfc log2(fold_change): −3.7166
  Pdgfrl log2(fold_change): −5.1348
  Pdia5 log2(fold_change): −0.7751
  Pdlim3 log2(fold_change): −4.1531
  Pdlim4 log2(fold_change): −1.7311
  Peg3 log2(fold_change): 2.024
  Peg10 log2(fold_change): 1.039
  Pfkfb4 log2(fold_change): −1.5699
  Pgcp log2(fold_change): −0.7169
  Pgm2 log2(fold_change): −0.7504
  Phlda3 log2(fold_change): −0.3766
  Phldb2 log2(fold_change): −0.3815
  Phyhd1 log2(fold_change): −2.3012
  Pkia log2(fold_change): 1.35
  Pkig log2(fold_change): −0.806
  Pla1a log2(fold_change): −3.9137
  Pla2g4a log2(fold_change): −0.8688
  Pla2g15 log2(fold_change): −0.4485
  Pla2r1 log2(fold_change): 0.9975
  Plac8 log2(fold_change): −1.882
  Plat log2(fold_change): 1.118
  Pld3 log2(fold_change): 0.4667
  Plekhg3 log2(fold_change): −0.4255
  Plod3 log2(fold_change): −0.8533
  Plp2 log2(fold_change): −2.055
  Plscr2 log2(fold_change): −2.11
  Plscr4 log2(fold_change): −0.4802
  Plxdc2 log2(fold_change): 0.439
  Pmepa1 log2(fold_change): −1.7518
  Pmm1 log2(fold_change): −0.3075
  Pmp22 log2(fold_change): −0.4263
  Podn log2(fold_change): −2.3482
  Polr3k log2(fold_change): −0.2305
  Pon3 log2(fold_change): −0.3857
  Popdc2 log2(fold_change): −1.6959
  Postn log2(fold_change): −3.2953
  Ppapdc1b log2(fold_change): −1.5748
  Ppp1r14a log2(fold_change): −1.7904
  Ppp2r5b log2(fold_change): −0.6772
  Pppde2 log2(fold_change): −0.4418
  Praf2 log2(fold_change): −0.7369
  Prc1 log2(fold_change): 0.6253
  Prdx2 log2(fold_change): −0.4976
  Prelid2 log2(fold_change): −2.8884
  Prelp log2(fold_change): 1.089
  Prickle1 log2(fold_change): −0.428
  Prkar1b log2(fold_change): −3.2629
  Prnp log2(fold_change): −0.5434
  Prrc1 log2(fold_change): −0.4987
  Prss35 log2(fold_change): 1.361
  Psd3 log2(fold_change): −0.5624
  Psrc1 log2(fold_change): −2.209
  Pstpip1 log2(fold_change): −5.1076
  Pter log2(fold_change): −2.1616
  Ptger3 log2(fold_change): −0.5801
  Ptgfrn log2(fold_change): −0.7379
  Ptgr1 log2(fold_change): 0.6805
  Ptgs2 log2(fold_change): −4.683
  Ptk2b log2(fold_change): −0.5496
  Ptms log2(fold_change): 1.352
  Ptpla log2(fold_change): −1.8584
  Ptplad2 log2(fold_change): −0.3185
  Ptprn log2(fold_change): −2.9328
  Ptrf log2(fold_change): 0.8162
  Pvrl2 log2(fold_change): −0.3051
  Pxmp4 log2(fold_change): 0.6931
  Pygb log2(fold_change): 0.6232
  Pygl log2(fold_change): −2.455
  Qpct log2(fold_change): 1.329
  Qsox1 log2(fold_change): −0.5335
  Rab7l1 log2(fold_change): −2.0329
  Rab15 log2(fold_change): −2.0667
